## Yeast mating assay B: variants of the scFv Ab-14

Binding partner: SARS-CoV-2 spike HR2 peptide, sequence PDVDLGDISGINAS.

Parent scFv Ab-14: VH joined to VL by the linker GGGGSGGGGSGGGGS. Changes lie in the heavy chain CDRs alone.
VH: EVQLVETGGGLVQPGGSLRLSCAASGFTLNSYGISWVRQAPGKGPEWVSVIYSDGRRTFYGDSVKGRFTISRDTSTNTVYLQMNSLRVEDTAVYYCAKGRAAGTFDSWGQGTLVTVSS
VL: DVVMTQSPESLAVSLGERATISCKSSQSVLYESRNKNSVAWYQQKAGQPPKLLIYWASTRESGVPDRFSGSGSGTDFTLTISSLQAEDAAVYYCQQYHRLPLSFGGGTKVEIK

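The parent was found by panning a naive human phage display library on the peptide. Designed CDR sequences, proposed from the first random library and measured here. Their group label is 14H_En_Gen (En: ensemble of fine-tuned language models; Gen: genetic algorithm). Affinity was read by AlphaSeq, a pooled yeast mating assay with surface-displayed partners. Pairs that bind mate more often; barcode pairs of the diploids are counted by sequencing. Read counts were normalised to the haploid input and turned into Kd by a linear fit to BCL2-family pairs of known affinity, for each replicate. There are six technical replicates.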

The parent's heavy chain CDRs are GFTLNSYGIS, VIYSDGRRTFYGDSVK, GRAAGTFDS; each variant's own CDRs replace them letter for letter.
Scale: log10 of Kd in nM, estimated from mating counts; low values are strong binders.
Replicates are averaged; those with no signal do not enter the mean.
"nd" means that the variant was in the library but no mating with the target was seen in that replicate; the authors take this as a sign of poor binding, and no number exists.
Of ten entries with the parent sequence, four were seen in most replicates (averages 0.34 to 2.37), three in one and three in none, so single entries are noisy.

| # | CDR-H1 | CDR-H2 | CDR-H3 | log10 Kd, replicates | mean, log10 nM | signal with controls |
|---|---|---|---|---|---|---|
| 1 | GFDLNEYGIS | VIYADGMRTAYADSVK | GANAGTFDL | 0.18 / 0.05 / -0.16 / -0.05 / 0.03 / 0.22 | 0.05 | 0 of 18 |
| 2 | GFDLDEYGIS | VIYADGMRTAYTDSVK | GNQAGTFDL | -0.58 / -0.16 / 0.36 / -0.52 / 1.32 / -0.22 | 0.03 | 1 of 18 (2.92) |
| 3 | GFDLNEYGIS | VIYADGVRTAYSDSVK | GQVAGTFDL | 0.55 / -0.01 / -0.08 / -0.11 / -0.10 / -0.13 | 0.02 | 0 of 18 |
| 4 | GFDLNEYGIS | VIYADGMRTAYSDSVK | GEVAGTFDA | -0.44 / -0.79 / -0.76 / -0.93 / -0.72 / -0.28 | -0.65 | 0 of 18 |
| 5 | GFDLDEYGIS | VIYADGVRTFYADSVK | GENAGTFDV | -0.63 / -0.62 / -0.71 / -0.47 / -0.81 / -0.68 | -0.65 | 0 of 18 |
| 6 | GFDLNEYGIS | VIYADGMRTAYSDKVK | GENAGTFDV | -0.93 / -1.39 / -1.79 / -1.41 / -1.20 / -1.20 | -1.32 | 0 of 18 |
| 7 | GFDLNEYGIS | VIYADGMRTFYADSVK | GEVAGTFDL | 0.52 / 0.05 / -0.40 / -0.11 / -0.13 / 0.43 | 0.06 | 0 of 18 |
| 8 | GFDLDEYGIS | VIYADGQRTAYADNVK | GENAGTFDV | 0.04 / -0.57 / -0.50 / -0.59 / -0.57 / -0.42 | -0.44 | 0 of 18 |
| 9 | GFDLDEYGIS | VIYADGMRTSYADSVK | GENAGTFDV | 0.72 / 0.67 / 0.60 / 0.16 / 1.43 / 1.43 | 0.84 | 0 of 18 |
| 10 | GFDLNEYGIS | VIYADGSRTAYIDSVK | GNVAGTFDT | -0.93 / nd / nd / -1.37 / -1.34 / nd | -1.22 | 0 of 18 |
| 11 | GFDLNEYGIS | VIYADGRRTAYADSVK | GEVAGTFDI | -0.45 / -0.58 / -0.48 / -0.72 / -0.95 / -0.40 | -0.60 | 1 of 18 (1.56) |
| 12 | GFDLDEYGIS | VIYADGVRTAYIDSVK | GNQAGTFDV | -0.46 / -0.68 / -0.53 / -0.72 / -0.70 / -0.38 | -0.58 | 1 of 18 (2.07) |
| 13 | GFDLNEYGIS | VIYADGMRTVYSDSVK | GNVAGTFDI | -1.47 / -1.29 / -1.00 / -1.87 / -1.11 / -0.97 | -1.28 | 0 of 18 |
| 14 | GFDLDEYGIS | VIYADGQRTAYADDVK | GNTAGTFDV | 0.19 / -0.50 / -0.50 / -0.01 / -0.04 / 0.11 | -0.12 | 0 of 18 |
| 15 | GFDLNEYGIS | VIYADGKRTAYVDSVK | GNQAGTFDM | nd / -0.39 / nd / -1.63 / -0.32 / -0.27 | -0.65 | 0 of 18 |
| 16 | GFDLDEYGIS | VIYADGMRTAYADTVK | GNQAGTFDV | -0.01 / 0.09 / -0.26 / -0.23 / -0.15 / -0.07 | -0.10 | 0 of 18 |
| 17 | GFDLNEYGIS | VIYADGMRTAYADDVK | GNNAGTFDM | 0.19 / 0.10 / -0.32 / -0.07 / 0.56 / 0.19 | 0.11 | 0 of 18 |
| 18 | GFDLNEYGIS | VIYADGQRTYYADSVK | GNVAGTFDQ | -0.37 / -0.32 / -0.65 / -0.63 / -0.63 / -0.40 | -0.50 | 0 of 18 |
| 19 | GFDLEEYGIS | VIYADGMRTAYADSVK | GETAGTFDV | -0.36 / -0.22 / -0.35 / -0.38 / -0.52 / -0.07 | -0.32 | 0 of 18 |
| 20 | GFDLDEYGIS | VIYADGKRTAYADSVK | GNNAGTFDQ | -0.80 / -1.03 / -1.05 / -0.61 / -0.93 / -0.97 | -0.90 | 0 of 18 |
| 21 | GFDLNEYGIS | VIYADGRRTAYVDSVK | GNVAGTFDM | -0.17 / 0.04 / 0.13 / -0.10 / 0.17 / 0.14 | 0.04 | 1 of 18 (1.89) |
| 22 | GFDLNEYGIS | VIYADGVRTAYTDSVK | GEVAGTFDL | -0.10 / 0.10 / -0.26 / -0.20 / -0.10 / 0.69 | 0.02 | 0 of 18 |
| 23 | GFDLDEYGIS | VIYADGRRTAYADSVK | GNTAGTFDT | -2.18 / -2.19 / -1.20 / -2.07 / -3.07 / -1.78 | -2.08 | 0 of 18 |
| 24 | GFDLNEYGIS | VIYADGRRTAYADSVK | GNNAGTFDI | -0.02 / -0.16 / 0.01 / -0.29 / -0.08 / 0.03 | -0.08 | 0 of 18 |
| 25 | GFDLNEYGIS | VIYADGKRTAYADSVK | GNVAGTFTL | -0.11 / -0.04 / -0.40 / 0.92 / 0.06 / -0.21 | 0.04 | 0 of 18 |
| 26 | GFDLNEYGIS | VIYADGKRTAYADSVK | GTNAGTFDI | -0.40 / 0.27 / -0.82 / -0.27 / 0.28 / -0.36 | -0.22 | 0 of 18 |
| 27 | GFDLNEYGIS | VIYADGQRTAYADSVK | GGNAGTFDL | -0.18 / 0.36 / -0.46 / -0.72 / -0.74 / -0.08 | -0.30 | 0 of 18 |
| 28 | GFDLNEYGIS | VIYADGKRTAYADDVK | GEVAGTFDV | -0.12 / -1.33 / -1.17 / -1.33 / -1.22 / -0.54 | -0.95 | 0 of 18 |
| 29 | GFDLNEYGIS | VIYADGSRTAYADNVK | GEVAGTFDT | 0.22 / -0.27 / -0.19 / -0.24 / -0.24 / -0.38 | -0.18 | 1 of 18 (1.19) |
| 30 | GFDLDEYGIS | VIYADGSRTAYSDSVK | GEVAGTFDL | -0.15 / -0.26 / 0.04 / 0.17 / 0.21 / 0.04 | 0.01 | 0 of 18 |
| 31 | GFDLNEYGIS | VIYADGKRTAYSDSVK | GNNAGTFDQ | -0.35 / -0.32 / -0.36 / -0.46 / -0.30 / -0.24 | -0.34 | 1 of 18 (3.10) |
| 32 | GFDLNEYGIS | VIYADGMRTAYTDSVK | GEVAGTFDI | -0.15 / -0.22 / -0.37 / -0.38 / -0.40 / -0.31 | -0.30 | 1 of 18 (3.87) |
| 33 | GFDLDEYGIS | VIYADGMRTAYSDDVK | GETAGTFDV | 1.77 / 0.96 / 0.72 / 0.46 / 2.44 / 0.21 | 1.10 | 0 of 18 |
| 34 | GFDLNEYGIS | VIYADGQRTAYADSVK | GNVAGTFDE | -0.49 / -0.84 / -0.79 / -0.73 / -0.79 / -0.66 | -0.72 | 0 of 18 |
| 35 | GFDLDEYGIS | VIYADGMRTAYADSVK | GNVAGTFDI | -0.40 / -0.43 / -0.35 / -0.53 / -0.52 / -0.20 | -0.40 | 0 of 18 |
| 36 | GFDLNEYGIS | VIYADGMRTAYVDSVK | GEVAGTFDI | -0.48 / -0.43 / -0.71 / -0.91 / -0.69 / -0.59 | -0.63 | 0 of 18 |
| 37 | GFDLDEYGIS | VIYADGMRTYYADSVK | GNQAGTFDV | -0.21 / -0.67 / -0.62 / -0.71 / -0.43 / -0.14 | -0.46 | 0 of 18 |
| 38 | GFDLDEYGIS | VIYADGKRTAYSDSVK | GENAGTFDL | -0.10 / -0.29 / -0.41 / -0.09 / -0.29 / 0.00 | -0.19 | 0 of 18 |
| 39 | GFDLNEYGIS | VIYADGMRTFYADSVK | GANAGTFDV | 0.09 / -0.36 / 0.64 / -0.90 / -0.69 / -1.00 | -0.37 | 0 of 18 |
| 40 | GFDLNEYGIS | VIYADGKRTAYADNVK | GNEAGTFDV | 1.52 / -0.10 / 0.34 / -0.10 / 0.23 / -0.10 | 0.30 | 0 of 18 |
| 41 | GFDLDEYGIS | VIYADGQRTAYADNVK | GNVAGTFDL | -0.52 / -0.53 / -0.44 / -0.65 / -0.26 / -0.31 | -0.45 | 1 of 18 (1.59) |
| 42 | GFDLNEYGIS | VIYADGRRTAYIDSVK | GNVAGTFDM | -0.81 / -0.60 / -0.89 / -0.59 / -1.14 / -0.94 | -0.83 | 0 of 18 |
| 43 | GFDLDEYGIS | VIYADGKRTAYIDSVK | GEVAGTFDV | -0.32 / -0.35 / -0.59 / -0.63 / -0.41 / -0.42 | -0.45 | 0 of 18 |
| 44 | GFDLNEYGIS | VIYADGMRTYYADDVK | GSNAGTFDV | -0.32 / -0.70 / -1.01 / -0.89 / -0.95 / -0.56 | -0.74 | 1 of 18 (0.92) |
| 45 | GFDLDEYGIS | VIYADGKRTAYSDSVK | GETAGTFDQ | -0.56 / -0.11 / -0.47 / -0.82 / -0.49 / -0.41 | -0.48 | 0 of 18 |
| 46 | GFDLEDYGIS | VIYADGMRTAYSDSVK | GENAGTFDV | -0.42 / -0.11 / 0.21 / -0.11 / -0.16 / 0.18 | -0.07 | 0 of 18 |

Excerpt, the first 8 entries:

| CDR-H1 | CDR-H2 | CDR-H3 | log10 Kd, replicates | mean, log10 nM | signal with controls |
|---|---|---|---|---|---|
| GFDLNEYGIS | VIYADGMRTAYADSVK | GANAGTFDL | 0.18 / 0.05 / -0.16 / -0.05 / 0.03 / 0.22 | 0.05 | 0 of 18 |
| GFDLDEYGIS | VIYADGMRTAYTDSVK | GNQAGTFDL | -0.58 / -0.16 / 0.36 / -0.52 / 1.32 / -0.22 | 0.03 | 1 of 18 (2.92) |
| GFDLNEYGIS | VIYADGVRTAYSDSVK | GQVAGTFDL | 0.55 / -0.01 / -0.08 / -0.11 / -0.10 / -0.13 | 0.02 | 0 of 18 |
| GFDLNEYGIS | VIYADGMRTAYSDSVK | GEVAGTFDA | -0.44 / -0.79 / -0.76 / -0.93 / -0.72 / -0.28 | -0.65 | 0 of 18 |
| GFDLDEYGIS | VIYADGVRTFYADSVK | GENAGTFDV | -0.63 / -0.62 / -0.71 / -0.47 / -0.81 / -0.68 | -0.65 | 0 of 18 |
| GFDLNEYGIS | VIYADGMRTAYSDKVK | GENAGTFDV | -0.93 / -1.39 / -1.79 / -1.41 / -1.20 / -1.20 | -1.32 | 0 of 18 |
| GFDLNEYGIS | VIYADGMRTFYADSVK | GEVAGTFDL | 0.52 / 0.05 / -0.40 / -0.11 / -0.13 / 0.43 | 0.06 | 0 of 18 |
| GFDLDEYGIS | VIYADGQRTAYADNVK | GENAGTFDV | 0.04 / -0.57 / -0.50 / -0.59 / -0.57 / -0.42 | -0.44 | 0 of 18 |

The authors' rule: three or more of the six replicates give a measured affinity, fewer mean a poor binder.
A sequence measured in both rounds can read differently, since the two assays cover different ranges.
As a blank, each scFv also met three strains without target: over all heavy chain designs, 1% of these pairings were detected, typically at 2.08 and seldom below 0.84. For each scFv, signals with the empty controls are counted beside the result, with their mean in brackets.

Values reported by Li et al. 2023, doi:10.1038/s41467-023-39022-2 (FLAb copy).